Values of other authors as cited in publication PMC4774423.

Chains of the proteins cited; added tags and fusions are not shown. Residues count along the entry.
UniProt Q07021, 74-282: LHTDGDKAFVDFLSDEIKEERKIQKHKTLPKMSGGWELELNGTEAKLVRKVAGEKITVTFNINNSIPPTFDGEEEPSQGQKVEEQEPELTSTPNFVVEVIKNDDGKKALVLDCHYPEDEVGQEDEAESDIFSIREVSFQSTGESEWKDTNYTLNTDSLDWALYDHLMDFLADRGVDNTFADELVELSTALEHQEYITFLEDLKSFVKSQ
UniProt P27797, 18-417: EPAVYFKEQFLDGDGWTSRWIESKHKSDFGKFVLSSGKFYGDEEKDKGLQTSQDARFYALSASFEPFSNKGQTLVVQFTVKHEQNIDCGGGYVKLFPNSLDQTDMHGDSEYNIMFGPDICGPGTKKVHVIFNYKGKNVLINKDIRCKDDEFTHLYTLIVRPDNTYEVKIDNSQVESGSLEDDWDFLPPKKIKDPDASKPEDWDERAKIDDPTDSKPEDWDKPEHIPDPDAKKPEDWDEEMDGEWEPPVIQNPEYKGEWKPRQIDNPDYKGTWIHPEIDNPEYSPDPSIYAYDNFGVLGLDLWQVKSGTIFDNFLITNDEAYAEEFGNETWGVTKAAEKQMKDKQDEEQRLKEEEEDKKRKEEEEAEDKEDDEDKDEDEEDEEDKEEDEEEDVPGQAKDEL
UniProt P02745, 23-245: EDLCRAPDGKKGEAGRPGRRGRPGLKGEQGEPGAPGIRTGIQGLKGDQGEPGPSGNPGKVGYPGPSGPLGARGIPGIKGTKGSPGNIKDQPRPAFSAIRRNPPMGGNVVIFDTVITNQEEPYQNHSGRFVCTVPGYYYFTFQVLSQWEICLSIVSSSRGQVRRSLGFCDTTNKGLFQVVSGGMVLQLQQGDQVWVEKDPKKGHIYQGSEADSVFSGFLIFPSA

What was measured:
gC1qR (Homo sapiens) = gC1qR (Homo sapiens) (UniProt Q07021)
CRT (Homo sapiens) = CRT (Homo sapiens) (UniProt P27797)

Kd (gC1qR (Homo sapiens)): 0.37 µM
Kd (CRT (Homo sapiens)): 0.83 µM
Substance: C1q-GR globular region (from UniProt P02745)
